Results reported in US20210228731A1, “ANTIBODY DRUG CONJUGATES FOR ABLATING HEMATOPOIETIC STEM CELLS” (NOVARTIS AG, priority 2018, published 2021).

System: human HSCs in humanized NSG mice
Assay: In vivo ablation of human HSCs from mouse host
Details: 10 mg/kg twice per day for 2 days intraperitoneally, bone marrow analyzed day 21
Protocol: To assess test agents for in vivo efficacy against human HSCs, severely immune compromised NOD.Cg-Prkdc^scid IL2^tm1wjl/SzJ mice that are humanized with human CD34+ cells were purchased from Jackson Laboratory. Percent human chimerism was determined by flow cytometry of blood samples. […] Cell populations were assessed via flow cytometry and analyzed with FlowJo.
In one particular experiment, mice were dosed with 10 mg/kg of anti-cKIT conjugate J26, J29, or J30, or isotype control conjugate J31 twice per day for 2 days. Mice were euthanized on day 21 and their bone marrow was analyzed.

J31 [Conjugate J31, reference compound]
human HSCs (human CD45+, human CD34+, human CD38-) in bone marrow: showed variable chimerism
